In patent publication US5869526A, “δ-(S-methylisothioureido)-L-norvaline therapeutic for cerebrovascular diseases having nitric oxide synthase inhibiting factor” (priority 1994, dated 1999):
Read-outs that look alike come from different tables or passages of the source.

How the values were obtained:
E-cNOS = molecular target: T1, E-cNOS (Bos taurus, UniProt P29473); test: Inhibition of E-cNOS activity, L-[3H]arginine to L-[3H]citrulline conversion (CPAE homogenate); assay type: biochemical, cow
T1 construct: the mixture was homogenized for 3 min to yield the crude enzyme sample of E-cNOS; endogenous in cells; host or cells: CPAE (cow pulmonary arterial endothelium) cells, whole homogenate
Description: The compound of Example 1 was evaluated for its inhibitory action against N-cNOS and E-cNOS in comparison with previously reported NOS inhibitors.
A crude enzyme sample of N-cNOS was a soluble cytosolic fraction of the rat cerebral cortex whereas a crude enzyme sample of E-cNOS was a homogenate of cow pulmonary arterial endothelium (CPAE) strain.
The crude enzyme sample of E-cNOS was prepared by the following procedure. CPAE was cultured in a MEM medium containing 20% of FBS. Several days later, the cells were detached from the flask using a solution of 0.25% trypsin containing 1 mM EDTA in 0.1M phosphate-buffered saline (PBS; pH 7.4) and centrifuged at 1,000 rpm for 5 min. […]
The method of measuring the NOS activity was basically the same as already reported by the present inventors and consisted of determining quantitatively the conversion of a substrate L-[^3 H] arginine to a reaction product L-[^3 H] citrulline [Brain Edema IX (Ito et al. eds.) 60, pp. 285-288, 1994, Acta Neurochir., Springer-Verlag]. […]
The reaction was started by adding L-[^3 H] arginine to the reaction solution and the mixture was incubated at 37° C. for 10 min. […] Thereafter, 5 ml of a scintillation fluid was added and the contained radioactivity was measured with a liquid scintillation counter to determine the amount of L-[^3 H] citrulline. […]

N-cNOS = molecular target: T2, N-cNOS (Rattus norvegicus, UniProt P29476); test: Inhibition of N-cNOS activity, L-[3H]arginine to L-[3H]citrulline conversion (rat cerebral cortex cytosol); assay type: biochemical; details: rat cerebral cortex soluble cytosolic fraction; 100 nM L-[3H]arginine, 37° C., 10 min; mean±standard error, n in parentheses; read-out: IC50 values, N-cNOS (Brain cytosol)
T2 construct: a soluble cytosolic fraction of the finally obtained supernate was used as the crude enzyme sample of N-cNOS; from tissue; host or cells: cerebral cortex of normal untreated male Sprague-Dawley rats, 100,000×g cytosolic supernatant

Which IC50 (E-cNOS; cow pulmonary arterial endothelium homogenate, 100 nM L-[3H]arginine, 37° C., 10 min, mean±standard error, n in parentheses, read-out: IC50 values, E-cNOS (CPAE)) does the source give for N=C(NCCC[C@H](N)C(=O)O)N[N+](=O)[O-] [L-NNA, N^G -nitro-L-arginine] here?
The IC50 was 89.8 ± 28.7 nM.

CNC(=N)NCCC[C@H](N)C(=O)O [L-NMMA, N^G -monomethyl-L-arginine] was tested. Which IC50 (E-cNOS) did it give?
The IC50 was 951 ± 232 nM.

For CC(=N)NCCC[C@H](N)C(=O)O [L-NIO, N^G -iminoethyl-ornithine, reference compound], which IC50 (N-cNOS) is on record?
Its IC50 is 277 ± 58.7 nM.
